For data set [1], the system named is rats. Put plainly: Ulcerogenic effect, gastric lesions in rats (Table VIII). The format is in vivo, male Sprague-Dawley rats. To be noted: single dose, 16 h. The method, then:
(§1) In the present study the test compounds were administered perorally by means of a stomach tube as an aqueous suspension in 5% acacia gum at a constant volume of 10 ml/kg to male Swiss mice and male Sprague-Dawley rats. Control rats and mice were given a corresponding volume of the aqueous suspension medium. The results were statistically evaluated by Dunnett's test (C. V. Dunnett.: J.A. Stat. Ass., 40, 1096, 1955).
The ulcerogenic effect was determined in rats by the method of Niemegeers et al. (Arzneimittel-Forschung 25, 1537, 1975). A single oral dose was administered to groups of 15 rats fasted for 9 hours before treatment and kept fasting throughout the whole experimental period. The animals were sacrificed 16 hours after treatment; the severity of lesions was scored according to an arbitrary scale ranging from + to ++++. For each group of rats, an ulcerogenic index was calculated according to Pauls et al., (Gastroenterology 8, 774, 1947).

Data set [2] deals with rats. Put plainly: in vivo. To be noted: oral, 7 days, Litchfield and Wilcoxon. The method, then:
(§2) In the present study the test compounds were administered perorally by means of a stomach tube as an aqueous suspension in 5% acacia gum at a constant volume of 10 ml/kg to male Swiss mice and male Sprague-Dawley rats. Control rats and mice were given a corresponding volume of the aqueous suspension medium.
(§3) The acute toxicity was determined on groups of 10 rats treated orally with 500, 1000, 1500 and 2000 mg/kg of the test compound by means of a stomach tube.

A short description of data set [3]: in vivo. As to conditions: rat, in vivo; rats, oral, 7 days, Litchfield and Wilcoxon. The method, then:
as §2, §3

Data set [4] relates to rats. Description: Analgesic-anti-inflammatory activity, Randall and Selitto, brewer's yeast inflamed paw in rats (Table IV). As to conditions: ratio to controls (1.0). The format is in vivo, male Sprague-Dawley rats. The method, then: as §1
4. Analgesic-anti-inflammatory activity
The analgesic-anti-inflammatory activity was evaluated in rats by the method of Randall and Selitto (Arch. Int. Pharmacodyn., 111, 409, 1957), using an analgesimeter to measure the minimum load that must be applied to a rat's hind paw to elicit a painful stimulus.
Both the controls and the experimental rats were injected into the right hind paw with 0.1 ml of 20% brewer's yeast in sterile saline immediately before the administration of the test compound.
The volume of the inflamed right hind paw was measured 1, 2 and 4 hours after the administration of the test compound.
The analgesic-anti-inflammatory activity was evaluated using an "analgesic index" expressed as a ratio between the sum of the average weights (grams) necessary to provoke a painful stimulus at different times in treated and control animals.

Structures can show the parent of a compound that is named as a salt.

As a reminder, the LD50 is the dose at which mortality reaches 50%. The low end stands for greater toxicity, the high end for lower toxicity. As for `CCCCC(C(=O)O)C(=O)N(Nc1ccccc1)c1ccccc1` (stereo not drawn) [B, Calcium salt of butylpropanedioic acid mono(1,2-diphenylhydrazide)], the “Ulcerogenic Index” value was 0 in data set [1] (40 mg/kg oral), 0 in data set [1] (80 mg/kg oral), 0.47 in data set [1] (160 mg/kg oral) and 81.63 in data set [1] (320 mg/kg oral). Moreover, the LD50 confidence limits in data set [2] is listed as 537.75-1,179.28 mg/kg. This molecule registered an LD50 at 168 h in data set [3] of 796 mg/kg. Also, the “Analgesic Index” value is reported as 1.27 in data set [4] (40 mg/kg oral), 1.34 in data set [4] (80 mg/kg oral) and 1.57 in data set [4] (160 mg/kg oral).

(Values after US4301177A, “(3-Methyl-2-butenyl)propanedioic acid mono (1,2-diphenylhydrazide) and salts thereof” (Istituto de Angeli S.p.A., priority 1979, dated 1981).)
